Apparent affinities of Ab-91 variants for a coronavirus HR2 peptide

From the AlphaSeq antibody data of Engelhart et al. 2022 (doi:10.1038/s41597-022-01779-4), copy in the FLAb collection.

Antigen: PDVDLGDISGINAS, a 14-residue peptide of the SARS-CoV-2 spike HR2 region.

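Phage display of a naive human antibody library on the peptide gave the parent. AAYL51 was designed without a model: most single CDR substitutions and a random sample of double and triple ones. The assay is AlphaSeq: two haploid yeast populations carry antibody and antigen on their surface. The frequency of each diploid, read from paired DNA barcodes, reflects how well the two displayed proteins bind. Read counts were normalised to the haploid input and turned into Kd by a linear fit to BCL2-family pairs of known affinity, for each replicate. The assay was run in three technical replicates.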

Each scFv is VL, a 15-residue (Gly4Ser)3 linker, VH, as in the parent Ab-91, and differs from it in the CDRs of the heavy chain only.
VL: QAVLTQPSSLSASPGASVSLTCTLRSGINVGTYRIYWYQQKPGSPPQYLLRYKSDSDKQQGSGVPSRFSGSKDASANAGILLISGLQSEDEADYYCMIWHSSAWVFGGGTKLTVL
VH: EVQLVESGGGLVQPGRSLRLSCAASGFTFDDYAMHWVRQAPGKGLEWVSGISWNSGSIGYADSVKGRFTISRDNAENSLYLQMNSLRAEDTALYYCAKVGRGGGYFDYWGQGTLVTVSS

Changes read parent residue, position, new residue, counted from the first residue of the VH shown.
The read-out is the apparent dissociation constant on a log10 scale (nM): the lower, the stronger.
"nd" means that the variant was in the library but no mating with the target was seen in that replicate; the authors take this as a sign of poor binding, and no number exists.

changes	log10 Kd (nM) by replicate	signal with controls
F27I+D31Q+S55I	nd / nd / nd	1/9 (5.25)
D30P+M34R+G104M	nd / nd / nd	0/9
Y60A+K65C	3.28 / nd / 3.71	2/9 (3.72)
W53S+N54M+V99G	1.68 / 2.02 / 1.87	0/9
K65E+G103I	4.23 / 5.41 / nd	1/9 (4.02)
I51N+I58E+F106K	4.97 / 6.03 / nd	6/9 (4.73)
I51R+D62L+R101N	nd / nd / nd	2/9 (3.86)
D31G+K65E+F106P	4.55 / 5.63 / nd	1/9 (3.97)
Y32F+M34E+V99W	nd / nd / nd	0/9
D31E+V99Q+G104E	nd / nd / nd	1/9 (2.87)
F27Y+G102D+Y105F	nd / nd / nd	0/9
F27W+G56H+V99L	nd / 4.71 / nd	1/9 (4.12)
A33F+S52R+G104W	nd / nd / 3.86	4/9 (5.19)
D30M+Y108W	3.77 / nd / nd	0/9
T28S+Y60Q+D62N	5.07 / 4.06 / 3.79	0/9
M34K+A61Y+Y105D	nd / nd / nd	1/9 (3.33)
G26E+A61M+F106S	nd / nd / nd	1/9 (3.54)
S55A+I58K+D107E	4.50 / 4.89 / 5.57	8/9 (5.31)
Y60T+Y105N	nd / nd / nd	3/9 (3.94)
R101G	nd / nd / nd	3/9 (4.48)
T28Q+S55L+A61M	nd / nd / nd	1/9 (3.02)
W53K+N54E+Y108C	nd / nd / nd	2/9 (4.92)
F27T+G50N+K65A	4.88 / nd / nd	4/9 (4.59)
I51W+G103A+Y105N	nd / 5.07 / nd	2/9 (2.93)
G26V+G103N+Y105G	6.03 / 5.66 / 5.00	7/9 (4.90)
G50N+S57G+V64Q	nd / 4.70 / nd	6/9 (4.85)
D31I+I51Y+G104K	4.43 / 5.46 / nd	4/9 (4.59)
H35V+G50Q+N54Q	nd / nd / nd	1/9 (4.79)
N54H+G100Y+G103S	3.00 / 2.30 / 2.38	4/9 (4.26)
T28Y+F29Y+S63Y	nd / nd / nd	1/9 (4.76)
G56A+S63R+G104R	3.38 / nd / nd	0/9
D30A+D31A+R101M	4.67 / nd / nd	1/9 (4.22)
G102L+G103N+G104T	3.72 / nd / nd	0/9
M34A+G100I+F106I	nd / nd / nd	3/9 (5.24)
S55T+V64G+G100S	nd / nd / nd	0/9
A33N+G56E+A61S	nd / nd / nd	1/9 (2.71)
D30K+N54A+S57K	5.96 / nd / nd	1/9 (5.19)
F27A+S55T+K65E	4.41 / 5.27 / 4.86	9/9 (5.55)
A33Y+D107H+Y108K	nd / nd / nd	2/9 (3.98)
N54W+D62K+V99N	3.95 / nd / nd	1/9 (3.80)
S57G+G59W+G103R	nd / nd / nd	0/9
S52N+G103M+Y108K	nd / nd / nd	0/9
N54W+Y105H	nd / nd / nd	2/9 (3.84)
D30R+I58G	nd / 4.55 / 2.83	3/9 (3.74)
S52F+N54P+S57Y	nd / nd / nd	0/9
K65G+R101E+G103K	3.79 / nd / 4.03	4/9 (4.46)

From the list, the first 5 with no signal in any replicate:

{"changes": "F27I+D31Q+S55I", "log10 Kd (nM) by replicate": "nd / nd / nd", "signal with controls": "1/9 (5.25)"}
{"changes": "D30P+M34R+G104M", "log10 Kd (nM) by replicate": "nd / nd / nd", "signal with controls": "0/9"}
{"changes": "I51R+D62L+R101N", "log10 Kd (nM) by replicate": "nd / nd / nd", "signal with controls": "2/9 (3.86)"}
{"changes": "Y32F+M34E+V99W", "log10 Kd (nM) by replicate": "nd / nd / nd", "signal with controls": "0/9"}
{"changes": "D31E+V99Q+G104E", "log10 Kd (nM) by replicate": "nd / nd / nd", "signal with controls": "1/9 (2.87)"}

Nonspecific signal, from three strains lacking the peptide, appeared in 21% of pairings of library AAYL51, centred on 4.54 (5% of these signals below 3.26); values are not corrected for it. For each scFv, signals with the empty controls are counted beside the result, with their mean in brackets.